Target: Human FAP (Homo sapiens (Human), UniProt Q12884)
Assay: FAP protease inhibition assay (FAM-labeled substrate peptide, microfluidic electrophoresis)
Details: enzyme 0.5 nM, substrate peptide 1 uM, 15 minutes pre-incubation, three hours for human FAP

Amino acid sequences for entries named in this document (tags omitted).
UniProt Q12884, whole entry: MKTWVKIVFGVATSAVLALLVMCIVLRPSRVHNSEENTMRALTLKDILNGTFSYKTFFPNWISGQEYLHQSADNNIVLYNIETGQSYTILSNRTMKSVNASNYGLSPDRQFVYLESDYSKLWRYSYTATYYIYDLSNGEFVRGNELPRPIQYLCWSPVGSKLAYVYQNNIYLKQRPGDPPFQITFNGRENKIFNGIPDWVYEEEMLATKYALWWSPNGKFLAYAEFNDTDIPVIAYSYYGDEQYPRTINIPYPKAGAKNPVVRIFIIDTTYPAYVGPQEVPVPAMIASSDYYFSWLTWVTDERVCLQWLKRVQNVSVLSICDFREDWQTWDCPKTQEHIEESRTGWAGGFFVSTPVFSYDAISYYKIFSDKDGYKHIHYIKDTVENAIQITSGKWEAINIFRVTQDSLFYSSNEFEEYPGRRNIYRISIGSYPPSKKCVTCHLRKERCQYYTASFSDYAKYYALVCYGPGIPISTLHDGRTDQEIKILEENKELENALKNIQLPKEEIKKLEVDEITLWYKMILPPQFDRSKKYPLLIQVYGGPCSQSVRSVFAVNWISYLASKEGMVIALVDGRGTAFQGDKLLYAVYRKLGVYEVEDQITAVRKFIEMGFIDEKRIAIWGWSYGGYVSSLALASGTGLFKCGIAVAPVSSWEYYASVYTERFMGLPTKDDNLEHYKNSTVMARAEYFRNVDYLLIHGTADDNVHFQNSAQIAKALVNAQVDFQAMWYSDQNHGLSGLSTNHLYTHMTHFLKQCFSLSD

| Compound | IC50 |
| --- | --- |
| N#C[C@H]1CCCN1C(=O)CNC(=O)c1ccnc2cc(OCC(=O)NCCOCCOCCOCCC(=O)N[C@@H](CCCCNC(=S)Nc3ccc(CC4CN(CC(=O)O)CCN(CC(=O)O)CCN(CC(=O)O)CCN4CC(=O)O)cc3)C(=O)N[C@@H](CCCCNC(=O)Cc3ccc(I)cc3)C(=O)O)ccc12 (some centres unmarked) | 500 to 5000 pM |
| CC(=O)NCCCC[C@H](NC(=O)[C@H](CCCCNC(=O)CCc1ccc(OC2=C(/C=C/C3=[N+](CCC[N+](C)(C)C)c4ccc(S(=O)(=O)O)cc4C3(C)C)CCC/C2=C\C=C2\N(CCC[N+](C)(C)C)c3ccc(S(=O)(=O)O)cc3C2(C)C)cc1)NC(=O)CCOCCOCCOCCNC(=O)COc1ccc2c(C(=O)NCC(=O)N3CCC[C@H]3C#N)ccnc2c1)C(=O)O | < 100 pM |
| CCCCCC(=O)NCCCC[C@H](NC(=O)[C@H](CCCCNC(=S)Nc1ccc(CC2CN(CC(=O)O)CCN(CC(=O)O)CCN2CC(=O)O)cc1)NC(=O)CCOCCOCCOCCNC(=O)COc1ccc2c(C(=O)NCC(=O)N3CCC[C@@H]3C#N)ccnc2c1)C(=O)O (some centres unmarked) | 500 to 5000 pM |
| CCCC(=O)NCCCC[C@H](NC(=O)[C@H](CCCCNC(=S)Nc1ccc(CC2CN(CC(=O)O)CCN(CC(=O)O)CCN2CC(=O)O)cc1)NC(=O)CCOCCOCCOCCNC(=O)COc1ccc2c(C(=O)NCC(=O)N3CCC[C@@H]3C#N)ccnc2c1)C(=O)O (some centres unmarked) | 500 to 5000 pM |
| CC(C)Cc1ccc(CC(=O)NCCCC[C@H](NC(=O)[C@H](CCCCNC(=S)Nc2ccc(CC3CN(CC(=O)O)CCN(CC(=O)O)CCN3CC(=O)O)cc2)NC(=O)CCOCCOCCOCCNC(=O)COc2ccc3c(C(=O)NCC(=O)N4CCC[C@H]4C#N)ccnc3c2)C(=O)O)cc1 (some centres unmarked) | < 100 pM |

From US20260034252A1, “FIBROBLAST ACTIVATION PROTEIN-TARGETED COMPOSITIONS AND METHODS OF USE THEREOF” (Ratio Therapeutics, Inc., priority 2022, published 2026)
